From patent US8969323B2, “Priming solutions for cardiopulmonary bypass” (XVIVO Perfusion AB, priority 2010, dated 2015) come the findings set out here.

The series is described as follows: Oncotic pressure of Dextran 40 solutions measured against a 10 kDa cut-off membrane. The class given is physicochemical. The source says: For the purpose of this application, a functional hyperoncotic pressure is an oncotic pressure such that when a solution with the functional hyperoncotic pressure is mixed with blood in the patient, the oncotic pressure in the blood is maintained within normal patient values. The reason for using this definition is because the effective oncotic pressure provided by a dextran solution mixed with blood in a patient cannot simply be calculated using van't Hoff's law. When oncotic pressure is measured in Dextran 40 solutions against a 10 kDa cut-off membrane, 35 g/l corresponds approximately to 37 mmHg or 1.3 times the oncotic pressure of plasma, 45 g/l corresponds approximately to 48 mmHg or about 1.7 times the oncotic pressure of plasma and 55 g/l corresponds approximately to 63 mmHg or about 2.1 times the oncotic pressure of plasma. However, the exact numbers will vary between measurement methods. The in vivo situation also immediately changes the functional oncotic pressure.

Dextran 40 displayed an oncotic pressure (Dextran 40 solution 35 g/l) of around 37 mmHg, an oncotic pressure (Dextran 40 solution 45 g/l) of around 48 mmHg and an oncotic pressure (Dextran 40 solution 55 g/l) of around 63 mmHg. The “oncotic pressure, times the oncotic pressure of plasma” value by setting is: (Dextran 40 solution 35 g/l) around 1.3 times; (Dextran 40 solution 45 g/l) “about 1.7 times”; (Dextran 40 solution 55 g/l) “about 2.1 times”.
